What was measured:
Dengue virus (DV) RdRp = Dengue virus (DV) RdRp (Dengue virus type 2, UniProt P29990); assay: DV RdRp primed-template (primer extension) assay; type: biochemical; conditions: ddhCTP titrated at different concentrations of CTP
Excerpt: FIG. 6(A)-6(B): DV RdRp-catalyzed RNA synthesis is inhibited by ddhCTP by a chain termination mechanism. A. Schematic of primer extension assay for evaluating DV RdRp activity. Elongation complexes are first assembled with a trinucleotide primer, 5′-pGGC (SEQ ID NO:1), and 20-nt RNA template (SEQ ID NO:2) in the presence of ATP and GTP to elongate the trinucleotide primer (extended primer; SEQ ID NO:3)) and position the enzyme on the template (SEQ ID NO:2) such that guanosine is in the first templating position (underlined). In the presence of CTP and UTP, DV RdRp catalyzes RNA synthesis to the end of the template (SEQ ID NO:5). […] B. Increasing concentrations of ddhCTP (1, 10, 100 and 300 μM) inhibits DV RdRp-catalyzed RNA synthesis. Reaction products resolved by denaturing PAGE from DV RdRp-catalyzed nucleoside incorporation in the presence of increasing concentrations of either ddhCTP or 3′-dCTP. In the absence of ddhCTP and 3′-dCTP, DV RdRp efficiently catalyzes RNA synthesis to the end of the template creating a 20-nt RNA product (n+5, lanes 2 and 8).
Molecular target for ddhCTP: Viperin is induced by both DNA and RNA viruses (8,44-51). […] To determine if the observations with DV RdRp extend to other supergroups, we evaluated a member of supergroup I. Specifically, the RdRp from human rhinovirus type C (HRV-C) was used, a member of the Picornavirus family. […]

Protein sequences, listed by entry. Tags and fused reporters are not part of them. Residues count along the entry.
UniProt P06935, 2526-3430: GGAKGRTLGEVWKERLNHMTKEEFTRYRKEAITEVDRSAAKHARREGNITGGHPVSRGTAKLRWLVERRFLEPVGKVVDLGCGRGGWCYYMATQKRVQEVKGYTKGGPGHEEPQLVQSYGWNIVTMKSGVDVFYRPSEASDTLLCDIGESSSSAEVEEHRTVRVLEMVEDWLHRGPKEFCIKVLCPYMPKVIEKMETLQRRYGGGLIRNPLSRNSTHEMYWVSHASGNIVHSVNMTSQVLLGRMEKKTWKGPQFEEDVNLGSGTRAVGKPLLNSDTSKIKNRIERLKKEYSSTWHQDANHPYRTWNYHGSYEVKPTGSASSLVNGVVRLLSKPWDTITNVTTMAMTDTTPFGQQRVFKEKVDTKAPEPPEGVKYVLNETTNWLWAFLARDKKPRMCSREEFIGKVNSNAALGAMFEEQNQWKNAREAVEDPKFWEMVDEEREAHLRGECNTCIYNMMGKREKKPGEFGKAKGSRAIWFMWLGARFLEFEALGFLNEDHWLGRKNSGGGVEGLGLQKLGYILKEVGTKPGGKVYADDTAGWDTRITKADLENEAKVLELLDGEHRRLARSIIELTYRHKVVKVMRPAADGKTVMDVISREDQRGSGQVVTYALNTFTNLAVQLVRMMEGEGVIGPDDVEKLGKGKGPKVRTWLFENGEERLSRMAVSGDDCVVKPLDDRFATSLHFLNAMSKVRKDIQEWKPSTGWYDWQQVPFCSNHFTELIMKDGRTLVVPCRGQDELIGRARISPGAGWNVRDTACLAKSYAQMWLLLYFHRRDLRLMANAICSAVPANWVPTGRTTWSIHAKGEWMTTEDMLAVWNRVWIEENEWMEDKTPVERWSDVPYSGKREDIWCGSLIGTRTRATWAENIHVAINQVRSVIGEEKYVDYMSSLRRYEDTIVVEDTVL

[1] = molecular target: RdRp from West Nile Virus (WNV) (West Nile virus, UniProt P06935); assay: WNV RdRp utilization of ddhCTP versus CTP; type: biochemical; conditions: ddhCTP titrated at different concentrations of CTP

Nc1ccn([C@@H]2OC(COP(=O)(O)OP(=O)(O)OP(=O)(O)O)=C[C@@H]2O)c(=O)n1 (stereo in doubt) [ddhCTP, 3′-deoxy-3′,4′-didehydro-cytidine triphosphate]
difference in utilization of ddhCTP relative to CTP (Dengue virus (DV) RdRp): 135 fold
difference in utilization of ddhCTP relative to CTP [1]: 59 fold
